AlphaSeq binding of Ab-14 light chain variants to a spike HR2 peptide

Source: Engelhart et al. 2022 (doi:10.1038/s41597-022-01779-4), MIT Lincoln Laboratory and A-Alpha Bio; data file from the FLAb repository.

Target: peptide PDVDLGDISGINAS, taken from heptad repeat 2 (HR2) of SARS-CoV-2 spike.

Parent: Ab-14, a human scFv built as VH, three GGGGS repeats, VL. Only the CDRs of the light chain vary.
VH: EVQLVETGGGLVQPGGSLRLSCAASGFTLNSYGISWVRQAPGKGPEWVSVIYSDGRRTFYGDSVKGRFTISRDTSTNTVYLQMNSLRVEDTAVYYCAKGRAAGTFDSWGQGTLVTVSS
VL: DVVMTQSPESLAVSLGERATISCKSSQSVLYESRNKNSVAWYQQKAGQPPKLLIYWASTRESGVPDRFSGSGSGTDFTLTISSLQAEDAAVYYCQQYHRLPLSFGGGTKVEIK

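Phage display of a naive human antibody library on the peptide gave the parent. Variants in AAYL50 differ from the parent at up to three CDR positions; double and triple changes were sampled at random. AlphaSeq pools MATa yeast showing the antibodies with MATalpha yeast showing the peptide. Mating (16 h, 30 °C) was followed by selection of diploids and sequencing of their barcodes. A regression on co-assayed BCL2-family reference pairs converts the normalised counts of each replicate to an apparent Kd. The assay was run in three technical replicates.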

Positions count from residue 1 of the parent VL; L30V puts V in place of L. Values are log10 of the apparent Kd in nM; lower means stronger binding. A mean of the replicates is given; it leaves out those without a signal. "n.d." means that the variant was in the library but no mating with the target was seen in that replicate; the authors take this as a sign of poor binding, and no number exists. Empty control strains, which show no peptide, gave a signal in 18% of pairings with library AAYL50; the median was 4.19 and 95% of these signals were weaker than 2.99. No background was subtracted. The control count says in how many pairings with the empty strains this scFv gave a signal, with their mean in brackets.

changes	replicates, log10 nM	log10 Kd (nM), mean	signal with controls
L30V/R34C/S62W	1.95 / 2.07 / 2.27	2.10	3 of 9 (4.10)
R34M/K36H/T59G	n.d. / n.d. / n.d.	n.d.	0 of 9
V29D/E61S/P101M	n.d. / n.d. / 3.80	3.80	1 of 9 (3.10)
K24G/R34H/Q96N	n.d. / n.d. / 4.54	4.54	1 of 9 (6.08)
S38C/E61G/S103D	n.d. / n.d. / n.d.	n.d.	2 of 9 (2.84)
S26V/Y97N/H98L	3.66 / 2.29 / 2.39	2.78	0 of 9
L30S/S103Q	0.48 / 0.51 / 0.43	0.47	1 of 9 (1.74)
K24V/K36C/W56N	-0.07 / 0.14 / 0.02	0.03	4 of 9 (4.08)
V29I/A40M/L100Y	n.d. / 4.56 / 5.37	4.97	2 of 9 (4.32)
R34E/N35Y	0.26 / 0.60 / 0.49	0.45	3 of 9 (3.84)
N35C/S58K/R99D	n.d. / n.d. / n.d.	n.d.	1 of 9 (2.37)
S25R/S38Q/Q95I	2.02 / 2.23 / 1.98	2.08	3 of 9 (4.44)
S28F/A40I/Q95G	n.d. / n.d. / n.d.	n.d.	1 of 9 (4.55)
Y31T/N37M/Q95L	1.84 / 1.81 / 1.86	1.84	0 of 9
V29W/S58G/R99L	1.23 / 1.22 / 1.52	1.32	2 of 9 (4.97)
V29Q/S38E/P101L	n.d. / n.d. / n.d.	n.d.	0 of 9
Y31N/R34T/S38E	0.21 / 0.55 / 0.40	0.39	3 of 9 (5.54)
N37E/T59K/Y97C	n.d. / 3.75 / n.d.	3.75	0 of 9
K24S/Y31A/L100N	0.65 / 0.86 / 0.63	0.71	2 of 9 (3.44)
Y31C/V39A/T59D	6.17 / 4.57 / n.d.	5.37	9 of 9 (5.01)
K24V/S38I/L102P	n.d. / 3.89 / n.d.	3.89	4 of 9 (3.52)
K36L/A57W/S62L	n.d. / n.d. / n.d.	n.d.	0 of 9
S28P/R60G	n.d. / n.d. / n.d.	n.d.	0 of 9
K24A/N35L/W56T	2.32 / 1.47 / n.d.	1.89	0 of 9
K24R/L30F/K36A	0.23 / 0.50 / 0.37	0.37	5 of 9 (3.59)
N37I/Q95F/R99T	n.d. / n.d. / n.d.	n.d.	0 of 9
N37T/S38N/T59Y	n.d. / n.d. / n.d.	n.d.	2 of 9 (2.71)
R34S/S58G/P101F	1.41 / 1.86 / 1.53	1.60	0 of 9
Q27W/K36Q	0.66 / 0.80 / 0.75	0.74	5 of 9 (5.11)
Q27G/S28W/R60S	n.d. / n.d. / n.d.	n.d.	0 of 9
Q27K/S28E/H98N	0.89 / 1.06 / 1.07	1.01	0 of 9
E32V/R34F	4.36 / 4.35 / 3.94	4.22	2 of 9 (3.52)
E32L/S38P/E61S	2.50 / n.d. / n.d.	2.50	0 of 9
K24Q/V29C/E32L	1.83 / 1.82 / 1.77	1.81	0 of 9
N37Y/S58A/L102M	1.50 / 1.49 / 1.96	1.65	0 of 9
N35L/H98A/L102R	1.07 / 1.21 / 1.01	1.10	1 of 9 (5.64)
V29P/E61L/P101K	1.46 / 1.51 / 1.42	1.46	2 of 9 (4.90)
L30Y/W56R/Q96I	n.d. / n.d. / n.d.	n.d.	0 of 9
S25D/R60M/Y97A	n.d. / n.d. / n.d.	n.d.	0 of 9
N35F/T59Q/P101D	1.80 / 1.60 / 1.73	1.71	1 of 9 (5.03)
S26V/T59L/Q95M	n.d. / n.d. / n.d.	n.d.	0 of 9
S62E/H98F/P101A	1.26 / 1.25 / 1.21	1.24	2 of 9 (4.19)

The closing 7 entries, repeated:

changes	replicates, log10 nM	log10 Kd (nM), mean	signal with controls
N35L/H98A/L102R	1.07 / 1.21 / 1.01	1.10	1 of 9 (5.64)
V29P/E61L/P101K	1.46 / 1.51 / 1.42	1.46	2 of 9 (4.90)
L30Y/W56R/Q96I	n.d. / n.d. / n.d.	n.d.	0 of 9
S25D/R60M/Y97A	n.d. / n.d. / n.d.	n.d.	0 of 9
N35F/T59Q/P101D	1.80 / 1.60 / 1.73	1.71	1 of 9 (5.03)
S26V/T59L/Q95M	n.d. / n.d. / n.d.	n.d.	0 of 9
S62E/H98F/P101A	1.26 / 1.25 / 1.21	1.24	2 of 9 (4.19)